Source: publication PMC3173463, “Discovery of Dual-Action Membrane-Anchored Modulators of Incretin Receptors” (PLoS ONE, 2011)

Chains of the proteins cited; added tags and fusions are not shown. Residues count along the entry.
UniProt P43220, 24-463: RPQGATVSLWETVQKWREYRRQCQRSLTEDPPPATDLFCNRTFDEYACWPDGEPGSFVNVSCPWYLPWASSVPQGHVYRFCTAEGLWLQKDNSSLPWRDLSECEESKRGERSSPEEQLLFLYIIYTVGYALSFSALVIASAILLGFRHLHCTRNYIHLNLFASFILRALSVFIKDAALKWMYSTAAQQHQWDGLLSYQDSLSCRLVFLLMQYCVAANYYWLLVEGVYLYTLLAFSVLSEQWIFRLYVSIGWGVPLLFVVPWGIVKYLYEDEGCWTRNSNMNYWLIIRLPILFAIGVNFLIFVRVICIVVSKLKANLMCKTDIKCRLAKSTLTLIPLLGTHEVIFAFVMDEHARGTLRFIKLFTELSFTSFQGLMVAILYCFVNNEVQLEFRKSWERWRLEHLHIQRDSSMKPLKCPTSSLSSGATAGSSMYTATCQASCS

Experiments:
[1] = target: T1, GIP-R (Homo sapiens, UniProt P48546); assay: Washout experiments, persistence of agonist-induced signaling (luciferase); assay type: cell-based; conditions: 15 minutes stimulation, three washes with serum-free medium, additional 4 hour incubation; Figure 7C-E
T1 construct: expressed in transfected cells; host or cells: HEK293 cells, transient transfection, pcDNA1.1 plasmid
T1 sequence (P48546 22-466): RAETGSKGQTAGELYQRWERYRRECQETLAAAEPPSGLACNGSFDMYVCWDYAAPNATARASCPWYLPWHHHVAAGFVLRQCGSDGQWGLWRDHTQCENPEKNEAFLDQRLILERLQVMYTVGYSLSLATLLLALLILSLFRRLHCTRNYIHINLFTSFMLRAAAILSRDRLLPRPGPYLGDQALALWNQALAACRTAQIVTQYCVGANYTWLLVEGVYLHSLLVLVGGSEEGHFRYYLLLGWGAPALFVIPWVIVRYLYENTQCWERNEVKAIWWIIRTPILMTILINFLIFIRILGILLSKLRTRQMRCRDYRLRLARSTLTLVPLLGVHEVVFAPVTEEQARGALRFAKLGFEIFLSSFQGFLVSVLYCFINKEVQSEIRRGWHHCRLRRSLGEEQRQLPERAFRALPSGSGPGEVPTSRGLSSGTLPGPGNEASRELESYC

[2] = target: T2, GLP-1R (Homo sapiens, UniProt P43220); assay: CRE luciferase reporter gene assay, soluble ligands on GLP-1R expressing cells; assay type: cell-based; conditions: soluble peptides, 6 hours stimulation; Figure 3A
T2 construct: expressed in transfected cells; host or cells: HEK293 cells, transient transfection, pcDNA1.1 plasmid

glucose-dependent insulinotropic polypeptide [GIP]
potency and efficacy at GIP-R following serial washes [1]: markedly decreased | agonist activity of soluble peptide at the GLP-1R [2]: minimal if any activity
